Assay results published in publication PMC11294477.

B1: GluGlu-tagged wild-type Gi1 [not stated] / GST-tagged GINIP protein [not stated] (parent)
chain 1: MGCTLSAEDKAAVERSKMIDRNLREDGEKAAREVKLLLLGAGESGKSTIVKQMKIIHEAGYSEEECKQYKAVVYSNTIQSIIAIIRAMGRLKIDFGDSARADDARQLFVLAGAAEEGFMTAELAGVIKRLWKDSGVQACFNRSREYQLNDSAAYYLNDLDRIAQPNYIPTQQDVLRTRVKTTGIVETHFTFKDLHFKMFDVGGQRSERKKWIHCFEGVTAIIFCVALSDYDLVLAEDEEMNRMHESMKLFDSICNNKWFTDTSIILFLNKKDLFEEKIKKSPLTICYPEYAGSNTYEEAAAYIQCQFEDLNKRKDTKEIYTHFTCATDTKNVQFVFDAVTDVIIKNNLKDCGLF
chain 2: MGVLMSKRQTVEQVQKVSLAVSAFKDGLRDRPSIRRTGELPGSRRGTVEGSVQEVQEEKEAEAGTSVVQEESSAGRAAWERLRDGRGVEPEEFDRTSRFTPPAFIRPTRKLDDDKPPEICLEPREPVVNDEMCDVCEVWTAESLFPCRVCTRVFHDGCLRRMGYIQGDSAAEVTEMAHTETGWSCHYCDNINLLLTEEEMYSLTETFQRCKVIPDCSLTLEDFLRYRHQAAKRGDRDRALSEEQEEQAARQFAALDPEHRGHIEWPDFLSHESLLLLQQLRPQNSLLRLLTVKERERARAAFLARGSGSTVSEAECRRAQHSWFCKRFPEAPSCSVSISHVGPIADSSPASSSSKSQDKTLLPTEQESRFVDWPTFLQENVLYILAARPNSAAIHLKPPG

Variants of: B1
Assay: GINIP pulldown assay (GST-pulldown, IB: GluGlu)
Conditions: with GST-tagged GINIP protein; 12 dynes/cm2 laminar 2min; read off a plot

response (relative activity)	Variant
1.9	chain 1 Q306K

Same assay, conditions: with GST-tagged GINIP protein; static (no flow); read off a plot

response (relative activity)	Variant
0.7	chain 1 Q306K
